Measurements taken from ChEMBL document CHEMBL1157604 (J Med Chem, 2010).

The chains behind the UniProt entries cited, without tags or fusion partners.
UniProt P23975, whole entry: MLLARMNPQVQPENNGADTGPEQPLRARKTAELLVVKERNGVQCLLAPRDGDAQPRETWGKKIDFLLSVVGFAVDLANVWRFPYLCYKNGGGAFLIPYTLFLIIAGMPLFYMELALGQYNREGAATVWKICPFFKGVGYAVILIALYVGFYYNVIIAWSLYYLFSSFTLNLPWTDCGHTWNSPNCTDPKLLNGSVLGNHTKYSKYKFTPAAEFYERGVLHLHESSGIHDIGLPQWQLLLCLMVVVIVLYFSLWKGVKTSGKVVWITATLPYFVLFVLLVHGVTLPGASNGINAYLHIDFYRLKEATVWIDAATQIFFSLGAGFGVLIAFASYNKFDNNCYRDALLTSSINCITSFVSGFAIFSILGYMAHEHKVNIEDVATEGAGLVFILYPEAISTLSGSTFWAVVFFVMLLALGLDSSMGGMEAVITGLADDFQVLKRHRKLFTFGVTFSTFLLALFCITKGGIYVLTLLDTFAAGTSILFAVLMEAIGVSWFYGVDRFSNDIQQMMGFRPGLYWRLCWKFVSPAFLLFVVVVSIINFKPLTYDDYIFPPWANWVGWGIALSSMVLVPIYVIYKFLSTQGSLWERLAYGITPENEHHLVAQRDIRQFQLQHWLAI

Target: Sodium-dependent noradrenaline transporter (Homo sapiens, UniProt P23975)
Test: Inhibition of [3H]norepinephrine uptake at human NET expressed in HEK293 cells
Format: cell-based

CC(NC(C)(C)C)C(=O)c1cccc(Cl)c1 (stereo unspecified) [BUPROPION]
IC50: 1850 nM
